Apparent affinities of Ab-14 variants for a coronavirus HR2 peptide

Target peptide (SARS-CoV-2 spike, HR2 region): PDVDLGDISGINAS

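Phage display of a naive human antibody library on the peptide gave the parent. These sequences belong to a second round, designed from the earlier measurements on random variants of the parent. Their group label is 14L_GP_HC (GP: Gaussian process model; HC: hill climbing; a sequence that several methods proposed may carry one label only). AlphaSeq pools MATa yeast showing the antibodies with MATalpha yeast showing the peptide. Mating (16 h, 30 °C) was followed by selection of diploids and sequencing of their barcodes. A regression on co-assayed BCL2-family reference pairs converts the normalised counts of each replicate to an apparent Kd. Mating was done six times.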

Each scFv is VH, three GGGGS repeats, VL, as in the parent Ab-14, and differs from it in the CDRs of the light chain only.
VH: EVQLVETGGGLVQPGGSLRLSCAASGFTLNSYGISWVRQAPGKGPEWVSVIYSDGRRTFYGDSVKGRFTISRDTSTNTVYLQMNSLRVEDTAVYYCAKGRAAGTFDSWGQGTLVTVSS
VL: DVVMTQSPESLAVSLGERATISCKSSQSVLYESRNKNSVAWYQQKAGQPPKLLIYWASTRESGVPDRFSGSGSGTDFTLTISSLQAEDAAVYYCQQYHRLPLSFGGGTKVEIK

The parent's light chain CDRs are KSSQSVLYESRNKNSVA, WASTRES, QQYHRLPLS; each variant's own CDRs replace them letter for letter.
Numbers give log10(Kd / nM), so 0 is 1 nM and 3 is 1 µM. Smaller is tighter.
"n.d." marks a missing value. The strain was present, yet no cells mated with the target were sequenced in that replicate, which points to weak or no binding.
Of ten entries with the parent sequence, four were seen in most replicates (averages 0.34 to 2.37), three in one and three in none, so single entries are noisy.
The authors' rule: three or more of the six replicates give a measured affinity, fewer mean a poor binder.
The range of this assay differs from that of the first round, and the authors advise against merging the two.
Nonspecific signal, from three strains lacking the peptide, appeared in 4% of pairings of all light chain designs, centred on 2.64 (5% of these signals below 1.59); values are not corrected for it. Also given: how often the same scFv was detected with the empty control strains, with their mean in brackets.

CDR-L1 | CDR-L2 | CDR-L3 | log10 Kd (nM) by replicate | control signals
KLSQSTLYDSGNKNSVA | WASTRES | QQYKRLPLS | 0.50 0.34 0.40 0.31 0.38 0.57 | 0 of 18
KLSQSELYEDRVKNSVA | GASTRES | QQYHRLPLS | 0.03 -0.07 0.29 0.04 0.08 0.00 | 2 of 18 (2.70)
KLEQSTLYESRNPNSVA | NASTRES | QQYHRLPLS | 0.11 -0.06 -0.19 0.13 0.05 0.14 | 0 of 18
KLSQSYHYESRNKKSVA | GASTRES | QQYHRLPLS | 1.15 0.89 0.67 0.84 0.62 0.84 | 1 of 18 (3.20)
KSSISYLYESRNGNSVA | EASTREQ | QQYHRLPLS | 0.25 0.03 0.05 -0.09 -0.24 0.03 | 0 of 18
KVLQSVVYEGRNKNSVA | DASTRED | QQYHRLPLS | 0.17 0.01 -0.05 0.04 -0.02 0.16 | 1 of 18 (2.39)
KSSLSYLYESRNENSVA | EASTREQ | QQYHRLPLS | 0.86 0.45 0.42 0.31 0.19 0.44 | 3 of 18 (3.16)
KLAQQTLYESRNKNSVA | WASTREE | QQYHRLPLS | n.d. 1.85 2.30 2.28 2.28 1.68 | 0 of 18
KSSQSQEYESRNKNSVA | HASTRED | QQYHRLPLS | 0.12 0.00 -0.03 -0.21 -0.01 0.14 | 0 of 18
KILQSVLYESRNKNSVA | HASTRED | QQYHRLPLS | 0.12 -0.08 -0.19 -0.03 -0.16 -0.05 | 3 of 18 (3.30)
KLPQGVLYESRNKNSVA | GASTRES | QQYHRLPLS | -0.24 -0.46 -0.62 -0.52 -0.57 -0.37 | 1 of 18 (3.87)
KSSQSVLLQSRNKNSVA | DASTRES | QQYHRLPLS | 0.78 0.39 0.23 0.10 0.15 0.67 | 1 of 18 (2.08)
KSSNSYLYESRNKNSVA | AASTRES | QQYHRLPLS | 0.35 0.03 0.21 0.18 0.31 0.33 | 1 of 18 (2.69)
KLRQSTKYESRNQNSVA | KASTRES | QQYHRLPLS | 1.34 1.37 1.28 1.11 1.25 1.34 | 1 of 18 (2.94)
KFSQSVLYESRTKNSVA | NASTRES | QCYHRLPLS | 0.18 0.40 0.29 0.27 0.52 0.38 | 3 of 18 (2.95)
KQSQSELCESRNKNSVA | DASTRES | QQYHRLPLS | -0.10 0.03 0.40 0.37 0.79 0.40 | 1 of 18 (0.80)
KVSQSYLLESRNKNSVA | EASTRES | QQYHRLPLS | -0.09 -0.32 -0.38 -0.63 -0.60 -0.27 | 1 of 18 (1.45)
KFSQKVLYEGRMKNSVA | NASTRES | QQYHRLPLS | 0.18 -0.07 0.04 -0.19 0.21 0.03 | 1 of 18 (1.88)
KSSQVYLYESRNKNSVA | GASTRES | QQYHRLPLI | 0.86 0.37 0.37 0.33 0.29 0.30 | 0 of 18
KSSISYPYESRNKNSVA | AASTRES | QQYHRLPLS | n.d. 1.88 1.41 n.d. 2.60 n.d. | 0 of 18
KSSQVQLYESRNKNSVA | GASTRES | QQYHRLPLS | 0.29 0.17 -0.03 -0.10 0.23 0.18 | 1 of 18 (2.98)
KLMQSTLYESRNKNSVA | WASTRLS | QQYHRLPLS | 1.63 1.45 1.40 1.45 1.74 2.17 | 1 of 18 (2.63)
KFSQKVLYETRTKNSVA | NASTRES | QQYHRLPLS | 0.32 -0.02 0.33 0.06 -0.24 0.21 | 0 of 18
KMSQSWLYESRNKNSVA | GASSRES | QQYHRLPLS | 0.03 -0.42 -0.22 -0.42 -0.06 -0.18 | 1 of 18 (3.14)
KSDQGALYESRNKNSVA | GASTRES | QQYHRLPLS | -0.20 0.19 0.21 -0.12 -0.29 0.61 | 1 of 18 (2.30)
KSSISYLYESMNKNSVA | HGSMRES | QQYHRLPLS | 0.53 0.05 0.10 -0.24 0.47 0.14 | 0 of 18
KIGQGVLYESRNTNSVA | GASTRES | QQYHRLPLS | -0.10 -0.05 -0.47 -0.34 -0.24 -0.10 | 1 of 18 (1.79)
KYSQSVKFESRNKNSVA | DASTRES | QQYHRLPLS | 0.13 0.05 0.16 0.42 -0.02 0.18 | 2 of 18 (2.35)
KFSQSVLYESRMYNSVA | NASTRES | QQYHRLPLS | 0.40 0.61 0.14 0.26 1.34 0.16 | 0 of 18
KSSQSWLYESRNKNSVA | GASMRES | QQYHRLPLS | 0.58 0.52 0.43 0.70 0.30 0.38 | 0 of 18
KLVNSTLYESRQKNSVA | DASTRES | QQYHRLPLS | 1.32 2.60 1.84 1.86 1.47 2.14 | 1 of 18 (2.34)
KVYISFLYESRNKNSVA | EASTRES | QQYHRLPLS | 1.21 1.10 1.47 1.03 0.89 1.04 | 0 of 18
KSSQSFLYESRNKNSVA | EASTRES | QNYHRLPLS | 1.41 1.39 1.23 1.54 1.21 2.20 | 3 of 18 (2.49)
KSSQSWLYESRNKNSVA | GASTRET | QQYHRLPLS | -0.19 -0.32 -0.38 -0.48 -0.38 -0.06 | 0 of 18
KLSISYLYESRNKNSVA | EASTRES | QQYHRLPLS | 0.56 0.71 0.64 0.67 0.70 1.19 | 0 of 18
KSSISNLYESENKNSVA | EASQRES | QQYHRLPLS | 0.45 0.38 0.47 0.30 0.35 0.46 | 1 of 18 (2.39)
KYSQEKLYESRNKNSVA | DASTRES | QQYHRLPLS | 0.16 0.00 -0.24 -0.22 -0.19 0.19 | 0 of 18
KFSQSFLYESRNFNSVA | GASTRES | QQYHRLPLS | -0.17 -0.58 -0.38 -0.41 -0.46 -0.32 | 1 of 18 (2.02)
KLRQSTKYESRNQNSVA | WASTRLS | QQYHRLPLS | 2.35 1.32 1.22 1.31 1.14 1.11 | 3 of 18 (3.18)
KSQQSVLYESRNFNSVA | HASTRED | QQYHRLPLS | n.d. n.d. n.d. n.d. n.d. n.d. | 1 of 18 (0.57)
KISQGVLYESRNKNSVA | GASTRES | QQYHRLPLS | 0.17 0.12 0.06 -0.03 0.07 0.11 | 2 of 18 (2.98)
KFSQSVLYEWRNKNSVA | DASTRES | QQYHRLPLS | -0.05 -0.16 -0.07 -0.22 -0.18 0.06 | 1 of 18 (0.79)
KQSQSVLGEQRNKNSVA | DISTRES | QQYHRLPLS | 0.25 0.46 0.08 -0.08 -0.10 0.87 | 1 of 18 (1.40)
QSSQSFLYESRNKNSVA | NASTRES | QQYHRLPLS | 0.27 0.26 -0.03 0.53 0.17 0.24 | 1 of 18 (3.08)

The closing 7 entries, repeated:

| CDR-L1 | CDR-L2 | CDR-L3 | log10 Kd (nM) by replicate | control signals |
|---|---|---|---|---|
| KFSQSFLYESRNFNSVA | GASTRES | QQYHRLPLS | -0.17 -0.58 -0.38 -0.41 -0.46 -0.32 | 1 of 18 (2.02) |
| KLRQSTKYESRNQNSVA | WASTRLS | QQYHRLPLS | 2.35 1.32 1.22 1.31 1.14 1.11 | 3 of 18 (3.18) |
| KSQQSVLYESRNFNSVA | HASTRED | QQYHRLPLS | n.d. n.d. n.d. n.d. n.d. n.d. | 1 of 18 (0.57) |
| KISQGVLYESRNKNSVA | GASTRES | QQYHRLPLS | 0.17 0.12 0.06 -0.03 0.07 0.11 | 2 of 18 (2.98) |
| KFSQSVLYEWRNKNSVA | DASTRES | QQYHRLPLS | -0.05 -0.16 -0.07 -0.22 -0.18 0.06 | 1 of 18 (0.79) |
| KQSQSVLGEQRNKNSVA | DISTRES | QQYHRLPLS | 0.25 0.46 0.08 -0.08 -0.10 0.87 | 1 of 18 (1.40) |
| QSSQSFLYESRNKNSVA | NASTRES | QQYHRLPLS | 0.27 0.26 -0.03 0.53 0.17 0.24 | 1 of 18 (3.08) |

The measurements come from Li et al. 2023 (doi:10.1038/s41467-023-39022-2) through the FLAb antibody collection.